Apparent affinities of Ab-14 variants for a coronavirus HR2 peptide

All variants were tested on one target, the spike HR2 peptide PDVDLGDISGINAS (SARS-CoV-2).

Ab-14 is the parent antibody, in scFv form: VH, then the linker GGGGSGGGGSGGGGS, then VL. The light chain is unchanged in all variants.
VH: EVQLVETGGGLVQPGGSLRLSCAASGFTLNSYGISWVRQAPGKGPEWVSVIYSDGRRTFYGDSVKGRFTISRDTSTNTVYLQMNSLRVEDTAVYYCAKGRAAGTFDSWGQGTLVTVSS
VL: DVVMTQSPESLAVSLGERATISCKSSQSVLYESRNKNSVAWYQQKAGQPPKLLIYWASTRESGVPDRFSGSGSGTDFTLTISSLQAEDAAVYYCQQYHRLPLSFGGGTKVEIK

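This is the validation round: designs drawn from the data on random variants, tested in the same kind of assay. Group labels follow the data file (Ctrl: baseline library sampled from a position-specific scoring matrix, with some repeated check sequences; Rand: our label for a block that the file lists under HC and that is probably the random mutants of the ten best first-round binders; GP: Gaussian process model; GPLM: also part of the Gaussian process libraries; HC: hill climbing; Gen: genetic algorithm; Gibbs: Gibbs sampling; a sequence that several methods proposed may carry one label only). The assay is AlphaSeq: two haploid yeast populations carry antibody and antigen on their surface. After mating in shaken culture at 30 °C for 16 h, diploids were selected and their barcode pairs sequenced. The ratio of observed to expected reads was calibrated, replicate by replicate, on BCL2-family standards whose Kd was known from biolayer interferometry. Mating was done six times.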

Positions count from residue 1 of the parent VH; T28D puts D in place of T.
This list holds designs with at most six substitutions.
The Kd shown is the geometric mean over detected replicates; a lower Kd is a better binder.
"nd" means that the variant was in the library but no mating with the target was seen in any replicate; the authors take this as a sign of poor binding, and no number exists.

Variant T28D/F59A [GPLM_Gibbs] showed 550 pM (6 of 6 replicates; controls 0 of 18).
Variant G26Y/R100Q/A101T/S107L [GP_Gibbs] showed nd (0 of 6 replicates; controls 0 of 18).
Variant T28W/G61M/R100A/A101T [Ctrl] showed 5.6 nM (2 of 6 replicates; controls 0 of 18).
Variant T28D/G61A/S63R/A101N [GP_Gen] showed 4.8 nM (5 of 6 replicates; controls 0 of 18).
Variant G26Y/T28D/R56K/A101T [GP_Gibbs] showed 120 nM (5 of 6 replicates; controls 1 of 18).
Variant T28S/S63H/A101T/S107A [GP_Gibbs] showed 12 nM (6 of 6 replicates; controls 0 of 18).
Variant S31E/G103V/S107N [GPLM_HC] showed 260 pM (6 of 6 replicates; controls 0 of 18).
Variant T28N/S53A/R100Q [GPLM_Gen] showed 560 pM (6 of 6 replicates; controls 1 of 18).
Variant G61T/R100M/A101K [GP_HC] showed 130 nM (5 of 6 replicates; controls 1 of 18).
Variant T28N/Y60M/F105P [Ctrl] showed nd (0 of 6 replicates; controls 0 of 18).
Variant S63K/A102P [Ctrl] showed 180 nM (2 of 6 replicates; controls 0 of 18).
Variant R56Q/G61S/R100Q [GPLM_Gen] showed 7.6 nM (6 of 6 replicates; controls 0 of 18).
Variant G61S/A102N/G103T/F105T [Ctrl] showed 92 nM (4 of 6 replicates; controls 1 of 18).
Variant T28S/G61C/R100Q/A101T [GPLM_Gen] showed 32 nM (6 of 6 replicates; controls 2 of 18).
Variant T28S/S53A/S63D/R100K [GP_Gibbs] showed 450 pM (4 of 6 replicates; controls 0 of 18).
Variant T28S/G61A/S63K/R100Q [GPLM_Gen] showed 13 nM (6 of 6 replicates; controls 0 of 18).
Variant T28E/G61V/S63D/R100N [GP_Gen] showed nd (0 of 6 replicates; controls 0 of 18).
Variant R56K/G61I/R100N/A101V [GP_Gibbs] showed 7.9 nM (6 of 6 replicates; controls 1 of 18).
Variant T28D/G61H/R100Q/A101E [GP_Gen] showed 1.1 nM (6 of 6 replicates; controls 1 of 18).
Variant T28D/A101Q/T104I [GP_HC] showed 87 nM (1 of 6 replicates; controls 0 of 18).
Variant T28R/R56W/T58V/R100Q/S107L [Ctrl] showed 48 nM (1 of 6 replicates; controls 1 of 18).
Variant T28H/L29V/N30Q/S31M/G61V/A102V [Ctrl] showed nd (0 of 6 replicates; controls 0 of 18).
Variant T28G/R56M/F105S/S107E [Ctrl] showed 5.5 µM (1 of 6 replicates; controls 1 of 18).
Variant T28S/S31E/R100P/S107M [GP_HC] showed nd (0 of 6 replicates; controls 0 of 18).
Variant T28S/G61I/A101E/S107T [GP_Gen] showed 3.8 nM (6 of 6 replicates; controls 0 of 18).
Variant A102H/D106E/S107Q [Ctrl] showed nd (0 of 6 replicates; controls 0 of 18).
Variant T28E/G61A/S63A/R100K/A101N [GP_Gibbs] showed 2.5 nM (5 of 6 replicates; controls 0 of 18).
Variant G61S/S63A/D106H [Ctrl] showed nd (0 of 6 replicates; controls 0 of 18).
Variant T28D/S31E/G103C/S107Q [GP_HC] showed nd (0 of 6 replicates; controls 0 of 18).
Variant S31W/S63A [Ctrl] showed nd (0 of 6 replicates; controls 1 of 18).
Variant G61H/S107Q [Ctrl] showed 40 nM (2 of 6 replicates; controls 0 of 18).
Variant T28P/S53A/R100G [GP_HC] showed 3.3 nM (6 of 6 replicates; controls 1 of 18).
Variant T28Q/S31E/G61S/R100K [GPLM_Gen] showed 680 pM (6 of 6 replicates; controls 0 of 18).
Variant A101V/A102K/D106R [Ctrl] showed nd (0 of 6 replicates; controls 0 of 18).
Variant T28E/G61I/R100E [GPLM_Gibbs] showed 5.4 nM (6 of 6 replicates; controls 0 of 18).
Variant T28E/R56Q/G61A/S63D/A101T [GP_Gibbs] showed 790 pM (6 of 6 replicates; controls 0 of 18).
Variant G61S/A102G/T104M [GPLM_HC] showed 290 nM (1 of 6 replicates; controls 0 of 18).
Variant T28S/S31E/R56M [GPLM_Gen] showed nd (0 of 6 replicates; controls 0 of 18).
Variant T28W/S31E/S63A/A101T [GPLM_Gibbs] showed 58 nM (6 of 6 replicates; controls 0 of 18).
Variant T28S/S31E/R100G/S107R [GP_HC] showed 5.1 nM (6 of 6 replicates; controls 1 of 18).
Variant T28S/R100H/S107L [GPLM_Gen] showed 6.5 nM (6 of 6 replicates; controls 0 of 18).
Variant T28D/A101P/T104W/D106N [Rand] showed nd (0 of 6 replicates; controls 1 of 18).
Variant F59A/G61I/R100Q/A101W/G103V/T104Q [Ctrl] showed nd (0 of 6 replicates; controls 0 of 18).
Variant T28E/S31D/A101Q/S107A [GPLM_Gibbs] showed 1.6 nM (6 of 6 replicates; controls 1 of 18).
Variant F27H/T28N [Ctrl] showed nd (0 of 6 replicates; controls 0 of 18).
Variant S31M/G61R/D106E [Ctrl] showed nd (0 of 6 replicates; controls 0 of 18).
Variant T28N/R100N/A101L [GP_Gibbs] showed 5.3 nM (6 of 6 replicates; controls 0 of 18).
Variant T28N/S63R/R100K/A101Q [GP_Gibbs] showed 78 nM (6 of 6 replicates; controls 1 of 18).
Variant S53A/T104P/D106V [Ctrl] showed 190 nM (2 of 6 replicates; controls 1 of 18).
Variant N30D/G33S/D106I [Ctrl] showed nd (0 of 6 replicates; controls 1 of 18).
Variant R56K/G61T [Ctrl] showed 14 nM (6 of 6 replicates; controls 1 of 18).
Variant G26T/T28N/S31E/R56C/S107T [Ctrl] showed nd (0 of 6 replicates; controls 0 of 18).

From the list, the first 3 with no signal in any replicate:

Variant G26Y/R100Q/A101T/S107L [GP_Gibbs] showed nd (0 of 6 replicates; controls 0 of 18).
Variant T28N/Y60M/F105P [Ctrl] showed nd (0 of 6 replicates; controls 0 of 18).
Variant T28E/G61V/S63D/R100N [GP_Gen] showed nd (0 of 6 replicates; controls 0 of 18).

Three control strains display no target. For all heavy chain designs, 1% of the pairings with them gave a signal, with a median of 120 nM and one signal in twenty below 7.0 nM, so weak values seen in few replicates may be background. Also given: how often the same scFv was detected with the empty control strains.
In the paper, a design with two or fewer of six values counts as a poor binder.
Values of this round are not directly comparable with the first-round values of the same sequences.
Of ten entries with the parent sequence, four were seen in most replicates (averages 2.2 nM to 240 nM), three in one and three in none, so single entries are noisy.

Reference: Li et al. 2023, doi:10.1038/s41467-023-39022-2. File: FLAb, binding data.